Data on 22 compounds can be found in patent US20150150960A1, “PROTECTION AGAINST DENGUE VIRUS AND PREVENTION OF SEVERE DENGUE DISEASE” (priority 2010, published 2015).

In one test the test system is PBMC of DENV seropositive human donors. It counts as cell-based. Conditions: allele B*0702; ex vivo IFNγ ELISPOT, Sri Lankan donors.
Turning to `CC[C@H](C)[C@H](NC(=O)[C@H](Cc1ccccc1)NC(=O)[C@H](C)NC(=O)[C@H](CCSC)NC(=O)[C@@H](NC(=O)[C@H](CC(C)C)NC(=O)[C@H](CCCCN)NC(=O)[C@H](CCSC)NC(=O)[C@@H]1CCCN1C(=O)CN)C(C)C)C(=O)O`, the “T cell response [SFC]” value was determined as 62 SFC.
With `CC(C)C[C@H](NC(=O)[C@H](CCC(=O)O)NC(=O)[C@H](CC(C)C)NC(=O)[C@H](CCCCN)NC(=O)CNC(=O)[C@H](CC(C)C)NC(=O)[C@H](Cc1c[nH]cn1)NC(=O)[C@H](Cc1c[nH]c2ccccc12)NC(=O)[C@@H]1CCCN1C(=O)CN)C(=O)O`, the “T cell response [SFC]” value came out at 53 SFC.
With `CC[C@H](C)[C@H](N)C(=O)N1CCC[C@H]1C(=O)N[C@@H](CCSC)C(=O)N[C@@H](C)C(=O)N[C@H](C(=O)N[C@@H](Cc1ccc(O)cc1)C(=O)NCC(=O)N[C@@H](Cc1c[nH]c2ccccc12)C(=O)N[C@@H](CC(N)=O)C(=O)N[C@@H](CC(C)C)C(=O)O)[C@@H](C)O`, the “T cell response [SFC]” value was 450 SFC.
For the compound `C[C@H](NC(=O)[C@@H](NC(=O)[C@H](CCC(N)=O)NC(=O)[C@@H](NC(=O)[C@H](Cc1c[nH]cn1)NC(=O)[C@H](Cc1ccc(O)cc1)NC(=O)CNC(=O)[C@@H]1CCCN1C(=O)[C@@H](N)CCCNC(=N)N)[C@@H](C)O)[C@@H](C)O)C(=O)O`, the “T cell response [SFC]” value is listed as 177 SFC.
With `CC[C@H](C)[C@H](NC(=O)[C@@H](NC(=O)[C@@H](NC(=O)[C@H](CC(N)=O)NC(=O)[C@H](Cc1c[nH]c2ccccc12)NC(=O)[C@H](Cc1ccccc1)NC(=O)[C@H](CCCCN)NC(=O)CNC(=O)[C@@H]1CCCN1C(=O)[C@@H](N)CO)[C@@H](C)O)[C@@H](C)O)C(=O)O`, the “T cell response [SFC]” value is reported as 105 SFC.
For `CC[C@H](C)[C@H](NC(=O)[C@H](C)NC(=O)[C@@H](NC(=O)[C@H](C)NC(=O)[C@H](CC(C)C)NC(=O)[C@H](CCCNC(=N)N)NC(=O)[C@H](CCCCN)NC(=O)[C@@H]1CCCN1C(=O)[C@@H](N)CO)[C@@H](C)O)C(=O)N[C@@H](C)C(=O)O`, the “T cell response [SFC]” value is 102 SFC.
Still for that read-out and setting: then `CC[C@H](C)[C@H](NC(=O)CNC(=O)[C@H](CCC(=O)O)NC(=O)[C@@H]1CCCN1C(=O)[C@@H](N)[C@@H](C)O)C(=O)N[C@H](C(=O)N1CCC[C@H]1C(=O)N[C@@H](CO)C(=O)N[C@@H](CCSC)C(=O)O)[C@@H](C)CC`, with 108 SFC.

Staying with this test, now noted: allele B*1501; ex vivo IFNγ ELISPOT, Sri Lankan donors.
On to `CC[C@H](C)[C@H](NC(=O)[C@H](CCC(N)=O)NC(=O)[C@@H](N)CCCCN)C(=O)N[C@@H](C)C(=O)N[C@@H](CC(N)=O)C(=O)N[C@@H](CCC(=O)O)C(=O)N[C@@H](CC(C)C)C(=O)N[C@@H](CC(N)=O)C(=O)N[C@@H](Cc1ccc(O)cc1)C(=O)O`, for which the “T cell response [SFC]” value amounted to 22 SFC.

The test is the same for the next values; noted with them: allele B*3501; ex vivo IFNγ ELISPOT, Sri Lankan donors.
As to `CC[C@H](C)[C@H](NC(=O)[C@H](CO)NC(=O)[C@H](C)NC(=O)[C@@H]1CCCN1C(=O)[C@@H](N)CC(=O)O)C(=O)N[C@@H](C)C(=O)N[C@@H](C)C(=O)N[C@@H](CCCNC(=N)N)C(=O)NCC(=O)N[C@@H](Cc1ccc(O)cc1)C(=O)O`, the “T cell response [SFC]” value is given as 183 SFC.
As for `CC[C@H](C)[C@H](NC(=O)[C@@H]1CCCN1C(=O)[C@@H](N)CC(=O)O)C(=O)N1CCC[C@H]1C(=O)N[C@@H](Cc1ccc(O)cc1)C(=O)N[C@@H](CC(=O)O)C(=O)N1CCC[C@H]1C(=O)N[C@@H](CCCCN)C(=O)N[C@@H](Cc1ccccc1)C(=O)O`, the “T cell response [SFC]” value came out at 77 SFC.
With `CC[C@H](C)[C@H](NC(=O)[C@@H]1CCCN1C(=O)[C@@H](NC(=O)[C@H](CO)NC(=O)[C@@H](NC(=O)[C@@H]1CCCN1C(=O)[C@@H](N)Cc1ccccc1)C(C)C)[C@@H](C)CC)C(=O)N[C@H](C(=O)N[C@@H](C)C(=O)N[C@@H](C)C(=O)O)[C@@H](C)O`, the “T cell response [SFC]” value stood at 35 SFC.
On to `CC(C)C[C@H](NC(=O)[C@@H](NC(=O)[C@H](Cc1c[nH]c2ccccc12)NC(=O)[C@H](C)NC(=O)[C@H](CO)NC(=O)[C@H](C)NC(=O)[C@@H]1CCCN1C(=O)[C@@H](N)Cc1c[nH]cn1)[C@@H](C)O)C(=O)N[C@@H](Cc1ccc(O)cc1)C(=O)O`, for which the “T cell response [SFC]” value was 38 SFC.
In the case of `CC[C@H](C)[C@H](N)C(=O)N[C@@H](C)C(=O)N[C@@H](CC(N)=O)C(=O)N[C@@H](CCC(N)=O)C(=O)N[C@@H](C)C(=O)N[C@H](C(=O)N[C@H](C(=O)N[C@@H](CC(C)C)C(=O)N[C@@H](CCSC)C(=O)O)C(C)C)[C@@H](C)O`, the “T cell response [SFC]” value is listed as 220 SFC.
Consider `CC[C@H](C)[C@H](NC(=O)[C@H](C)NC(=O)[C@@H]1CCCN1C(=O)[C@@H](NC(=O)[C@H](CCC(N)=O)NC(=O)[C@H](Cc1ccc(O)cc1)NC(=O)[C@H](CCCNC(=N)N)NC(=O)[C@@H](NC(=O)[C@@H]1CCCN1C(=O)[C@@H](N)CC(C)C)[C@@H](C)CC)[C@@H](C)O)C(=O)O`, for which the “T cell response [SFC]” value was 195 SFC.
In the case of `CC(C)C[C@H](NC(=O)[C@H](Cc1c[nH]c2ccccc12)NC(=O)[C@@H](NC(=O)[C@@H]1CCCN1C(=O)[C@@H](N)CC(C)C)C(C)C)C(=O)N[C@@H](C)C(=O)N[C@@H](Cc1ccc(O)cc1)C(=O)N[C@@H](CCCCN)C(=O)N[C@H](C(=O)N[C@@H](C)C(=O)O)C(C)C`, the “T cell response [SFC]” value was found to be 27 SFC.
Regarding `CC[C@H](C)[C@H](NC(=O)[C@H](CO)NC(=O)[C@@H](NC(=O)[C@H](CCSC)NC(=O)CNC(=O)[C@@H](NC(=O)[C@H](C)NC(=O)[C@@H](N)CCSC)C(C)C)C(C)C)C(=O)N[C@@H](CC(C)C)C(=O)O`, the “T cell response [SFC]” value came out at 172 SFC.
With `C[C@H](NC(=O)[C@@H]1CCCN1C(=O)[C@@H](N)CC(N)=O)C(=O)N[C@@H](CCC(N)=O)C(=O)N[C@@H](CCC(=O)O)C(=O)N[C@@H](CC(=O)O)C(=O)N[C@@H](CC(=O)O)C(=O)N[C@@H](CCC(N)=O)C(=O)N[C@@H](Cc1ccc(O)cc1)C(=O)O`, the “T cell response [SFC]” value was found to be 118 SFC.
Turning to `CC[C@H](C)[C@H](NC(=O)[C@H](CC(=O)O)NC(=O)[C@H](CC(=O)O)NC(=O)[C@H](CCC(=O)O)NC(=O)[C@@H](NC(=O)[C@H](CCC(=O)O)NC(=O)[C@@H]1CCCN1C(=O)[C@@H](N)CC(N)=O)[C@@H](C)CC)C(=O)N[C@@H](Cc1ccccc1)C(=O)O`, the “T cell response [SFC]” value stood at 110 SFC.
On to `CC[C@H](C)[C@H](NC(=O)CNC(=O)[C@H](CCC(=O)O)NC(=O)[C@@H]1CCCN1C(=O)[C@@H](N)[C@@H](C)O)C(=O)N[C@H](C(=O)N1CCC[C@H]1C(=O)N[C@@H](CO)C(=O)N[C@@H](CCSC)C(=O)O)[C@@H](C)CC`, for which the “T cell response [SFC]” value worked out at 295 SFC.
Turning to `C[C@@H](O)[C@H](N)C(=O)N1CCC[C@H]1C(=O)N1CCC[C@H]1C(=O)NCC(=O)N[C@@H](CO)C(=O)N[C@@H](CCCNC(=N)N)C(=O)N[C@@H](CC(=O)O)C(=O)N1CCC[C@H]1C(=O)N[C@@H](Cc1ccccc1)C(=O)O`, the “T cell response [SFC]” value is recorded as 210 SFC.
The same measure, in the same setting: then `CSCC[C@H](NC(=O)[C@@H]1CCCN1C(=O)[C@@H](NC(=O)[C@@H](NC(=O)[C@H](Cc1ccccc1)NC(=O)[C@@H](NC(=O)[C@@H](NC(=O)[C@H](C)NC(=O)[C@@H](N)C(C)C)[C@@H](C)O)[C@@H](C)O)C(C)C)[C@@H](C)O)C(=O)O`, with 268 SFC.
For the compound `CC[C@H](C)[C@H](NC(=O)[C@H](C)NC(=O)[C@H](CC(C)C)NC(=O)[C@H](CC(C)C)NC(=O)[C@@H]1CCCN1C(=O)[C@@H](N)C(C)C)C(=O)NCC(=O)N[C@@H](CS)C(=O)N[C@@H](Cc1ccc(O)cc1)C(=O)O`, the “T cell response [SFC]” value is listed as 213 SFC.
`CC(C)C[C@H](NC(=O)[C@H](CCCCN)NC(=O)[C@@H](NC(=O)[C@H](CCCCN)NC(=O)[C@@H]1CCCN1C(=O)[C@@H](N)Cc1ccc(O)cc1)[C@@H](C)O)C(=O)N[C@H](C(=O)N[C@@H](CC(=O)O)C(=O)N[C@@H](Cc1c[nH]c2ccccc12)C(=O)N[C@@H](CC(=O)O)C(=O)O)[C@@H](C)O`: the “T cell response [SFC]” value is 267 SFC.
